Reference: US10973762B2, “Active-targeting-type polymer derivative, composition containing said polymer derivative, and uses of said polymer derivative and said composition” (Nippon Kayaku Kabushiki Kaisha, priority 2016, dated 2021)
Read-outs that look alike come from different tables or passages of the source.

Tests used:
[1] = Average particle size, single nanoparticle size analyzer IG-1000; assay type: physicochemical; settings: 2 mg/mL
Method: The measurement of the average particle size of the compositions including block copolymers of Examples 3 to 10 and Comparative Examples 1 to 6 was carried out using a single nanoparticle size analyzer, IG-1000, manufactured by Shimadzu Corp. (measurement temperature: 25° C., light intensity at t=0: 100 to 200).
Regarding a sample for measuring the average particle size, a solution produced to have a concentration of 2 mg/mL or 5 mg/mL in terms of the composition weight and filtered through a 0.45-μm membrane filter, was used.

[2] = Test Example 3: intrarenal tissue distribution (fluorescence of sections); assay type: in vivo, nude mice; settings: i.v. 5 mg/kg in terms of fluorescent substance
Method: (§1) A suspension of cultured cancer cell human glioma U87MG was subcutaneously transplanted on the dorsal sides of nude mice using an injection needle-attached syringe. Example 3, Comparative Example 4, and Comparative Example 5 were dissolved in a 5% glucose injectable solution, and each of the solutions was intravenously administered a single time in an amount of 5 mg/kg in terms of 2-(2-aminoethoxy)-9-(diethylamino)-5H-benzo[a]phenoxazin-5-one.
(§2) After one hour and after 24 hours from the administration, the mice were exsanguinated under isoflurane anesthesia, and frozen embedded sections of extracted tumor and kidney were produced. Fluorescence derived from 2-(2-aminoethoxy)-9-(diethylamino)-5H-benzo[a]phenoxazin-5-one in the administered composition was observed.
(§3) Furthermore, luminance was calculated based on those images using an Image-Pro Premier (Media Cybernetics, Inc.). The values of luminance of tumor tissue sections are shown in FIG. 5, and the values of luminance of kidney tissue sections are shown in FIG. 7.

human glioma U87MG = assay: Test Example 3: intratumor tissue distribution (fluorescence of sections); assay type: in vivo, nude mice; settings: one hour after i.v. administration, 5 mg/kg in terms of fluorescent substance
Method: as §1, §2, §3

[3] = 1 mg/mL, Zetasizer Nano ZS

Row | Substance | average particle size [1] [nm] | intrarenal distribution of fluorescence [2] | intratumor distribution of fluorescence (human glioma U87MG) | average particle size [3] [nm]
1 | 4-phenyl-1-butanol-bonded and 2-(2-aminoethoxy)-9-(diethylamino)-5H-benzo[a]phenoxazin-5-one-bonded product of polyethylene glycol (10 kilodaltons)-polyglutamic acid (21.0 polymerizations) block copolymer [Comparative Example 1] | 18 | – | – | –
2 | 4-phenyl-1-butanol-bonded and 2-(2-aminoethoxy)-9-(diethylamino)-5H-benzo[a]phenoxazin-5-one-bonded product of polyethylene glycol (2 kilodaltons)-polyglutamic acid (7.9 polymerizations) block copolymer [Comparative Example 5] | 13 | fluorescence was observed in the blood vessels and in the renal tubules | penetration into the entire tumor and fluorescent signals were observed in a wider region | –
3 | 4-phenyl-1-butanol-bonded product of ester polyethylene glycol (2 kilodaltons)-polyglutamic acid (7.8 polymerizations) block copolymer having cyclo[Arg-Gly-Asp-D-Phe-Lys(Cys)] (cRGDfK(C)) bonded thereto and having 4-maleimidobutyric acid-N-hydroxysuccinimide at one terminal [Example 1-2B] | – | – | – | 22
4 | 4-phenyl-1-butanol-bonded and 2-(2-aminoethoxy)-9-(diethylamino)-5H-benzo[a]phenoxazin-5-one-bonded product of polyethylene glycol (12 kilodaltons)-polyglutamic acid (22.0 polymerizations) block copolymer [Comparative Example 4] | 36 | fluorescence was not recognized in areas other than the blood vessels in the kidney | penetration into the tumor was poor | –
5 | 4-phenyl-1-butanol-bonded product of polyethylene glycol (2 kilodaltons)-polyglutamic acid (7.8 polymerizations) block copolymer having cyclo[Arg-Gly-Asp-D-Phe-Cys] (cRGDfC) bonded thereto and having 4-maleimidobutyric acid-N-hydroxysuccinimide ester bonded to one terminal [Example 1-1] | – | – | – | 25
